This is a selection; strong and weak results do not stand in their true shares. Some tests of the compounds listed are not included; inactive here does not mean inactive elsewhere. Activity calls are given as the source filed them.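 The calls were made as follows: active = ratio B-score over 3 SD below the library mean, with starting fluorescence within 5 SD of its mean; inactive = the rest, inconclusive results apart.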
Target: Potassium channel subfamily K member 9 (Homo sapiens) (UniProt Q9NPC2)
Experiment: blockers of human TASK-3 (KCNK9) channel – HEK293 cells, thallium flux, primary screen (AID 488922)
Conditions: HEK293 KCNK9, FluxOR thallium flux fluorescence; at 10 µM

Amino acid sequences for entries named in this document (tags omitted).
UniProt Q9NPC2, whole entry: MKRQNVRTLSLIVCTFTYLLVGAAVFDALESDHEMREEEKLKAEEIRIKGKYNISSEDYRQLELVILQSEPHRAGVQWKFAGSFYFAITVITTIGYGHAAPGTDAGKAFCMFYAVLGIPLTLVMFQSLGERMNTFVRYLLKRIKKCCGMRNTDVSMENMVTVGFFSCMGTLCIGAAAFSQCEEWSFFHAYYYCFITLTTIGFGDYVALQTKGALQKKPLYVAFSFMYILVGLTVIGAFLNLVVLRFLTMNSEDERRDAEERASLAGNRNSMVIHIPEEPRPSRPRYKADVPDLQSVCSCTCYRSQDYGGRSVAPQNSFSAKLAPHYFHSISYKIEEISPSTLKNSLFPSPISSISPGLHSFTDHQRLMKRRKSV

Row | Structure (SMILES) | outcome
1 | COc1cc(C(=O)NCC2(N(C)C)CCCCC2)c([N+](=O)[O-])cc1OC | inactive
2 | CN(C)C1(CNC(=O)c2ccc(Br)cc2)CCCCC1 | inactive
3 | O=C(NCC1(N2CCCCC2)CCCCC1)c1cccc(Cl)c1 | inactive
4 | COc1cccc(C(=O)NCC2(N3CCCCC3)CCCCC2)c1 | inactive
5 | COc1ccc(Cl)cc1C(=O)NCC1(N(C)C)CCCCC1 | inactive
6 | O=C(OC1CN2CCC1CC2)C(CO)(c1ccccc1)c1ccccc1 (centres undefined) | inactive
7 | CC(C)Oc1ccc(C(=O)NCC2(N(C)C)CCCCC2)cc1 | inactive
8 | CN(C)c1cccc(C(=O)NCC2(N(C)C)CCCCC2)c1 | inactive
9 | COc1ccc(Br)c(C(=O)NCC2(N3CCCCC3)CCCCC2)c1 | inactive
10 | CN1[C@@H]2CC[C@H]1CC(OC(=O)C(O)(c1ccccc1)c1ccccc1)C2 (some centres undefined) | inactive
11 | O=C(NCC1(N2CCCCC2)CCCCC1)c1cc([N+](=O)[O-])ccc1Cl | inactive
12 | Cc1ccc(C(=O)NCC2(N3CCCCC3)CCCCC2)cc1 | inactive
13 | CCN(CC)CC(C)C(C)OC(=O)C(O)(c1ccccc1)c1ccccc1 (centres undefined) | inactive
14 | COc1cc(SC)ccc1C(=O)NCC1(N(C)C)CCCCC1 | inactive
15 | CC(C)N1C(=O)CC2(CCN(CCOC(=O)C(O)(c3ccccc3)c3ccccc3)CC2)C1=O | inactive
16 | Cc1ccccc1C(=O)NCC1(N2CCCCC2)CCCCC1 | inactive
17 | CN(C)C1CCCC1OC(=O)C(O)(c1ccccc1)c1ccccc1 (centres undefined) | inactive
18 | CN(C)c1ccc(C(=O)NCC2(N(C)C)CCCCC2)cc1 | inactive
19 | COc1ccc(C(=O)NCC2(N(C)C)CCCCC2)cc1 | inactive
20 | Cc1cc(C(=O)NCC2(N3CCCCC3)CCCCC2)ccc1[N+](=O)[O-] | inactive
21 | CCN1CCCC(OC(=O)C2(O)c3ccccc3C=Cc3ccccc32)C1 (centres undefined) | inactive
22 | O=C(NCC1(N2CCCCC2)CCCCC1)c1cccc(Br)c1 | inactive
23 | C=CCN1CCN(CCOC(=O)C(O)(c2ccccc2)c2ccccc2)CC1 | inactive
24 | O=C(NCC1(N2CCCCC2)CCCCC1)c1cc(F)c(F)cc1Cl | inactive

— PubChem BioAssay AID488922 (Johns Hopkins Ion Channel Center, 2010)
